Source: patent US8877748B2, “Heterocyclic fused anthraquinone derivatives, manufacturing method and pharmaceutical composition using thereof” (National Defense Medical Center, priority 2012, dated 2014)

Tested on: PC-3 prostate cancer cell line
Assay: SRB assay cell viability, PC-3 prostate cancer cell line
Format: cell-based, human
Details: read-out: SRB assay: 50% inhibition of cancer cell proliferation of sample concentration (IC50) of PC-3 prostate cancer cell line, Table II prints no unit, μM printed

CC(C)CNc1cc2c(c3nsnc13)C(=O)c1ccccc1C2=O
IC50: 0.74 µM
